Conditions: 10 mg/ml in 1×PBS, sub-Q, n=3 rats, 3.5 hours

## Fluorescein isothiocyanate glycogen [FITC-glycogen]
  absorption into systemic circulation (serum fluorescence): absorbs significantly faster into systemic circulation than even the FITC-Dex-70
